Sequences of proteins named here, by UniProt entry; tags and fusion partners are left off. A change or cut given only in a name is not applied to a line headed by its entry.
UniProt Q99572: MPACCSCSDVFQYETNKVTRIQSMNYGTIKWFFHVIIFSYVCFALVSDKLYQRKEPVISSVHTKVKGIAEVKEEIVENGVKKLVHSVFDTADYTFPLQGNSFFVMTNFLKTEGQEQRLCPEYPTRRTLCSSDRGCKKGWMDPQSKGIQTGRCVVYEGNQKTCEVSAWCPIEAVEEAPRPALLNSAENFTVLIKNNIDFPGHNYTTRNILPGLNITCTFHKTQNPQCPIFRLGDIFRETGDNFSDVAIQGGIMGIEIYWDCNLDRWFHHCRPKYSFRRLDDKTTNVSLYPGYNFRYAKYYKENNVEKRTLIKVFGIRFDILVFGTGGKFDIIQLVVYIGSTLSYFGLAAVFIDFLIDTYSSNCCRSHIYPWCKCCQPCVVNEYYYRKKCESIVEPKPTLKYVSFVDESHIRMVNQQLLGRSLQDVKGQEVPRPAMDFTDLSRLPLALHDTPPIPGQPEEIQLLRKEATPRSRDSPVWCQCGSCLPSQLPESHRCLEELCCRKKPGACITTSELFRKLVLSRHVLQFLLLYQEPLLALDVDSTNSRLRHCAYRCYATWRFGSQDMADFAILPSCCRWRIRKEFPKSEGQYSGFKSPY
UniProt Q64663: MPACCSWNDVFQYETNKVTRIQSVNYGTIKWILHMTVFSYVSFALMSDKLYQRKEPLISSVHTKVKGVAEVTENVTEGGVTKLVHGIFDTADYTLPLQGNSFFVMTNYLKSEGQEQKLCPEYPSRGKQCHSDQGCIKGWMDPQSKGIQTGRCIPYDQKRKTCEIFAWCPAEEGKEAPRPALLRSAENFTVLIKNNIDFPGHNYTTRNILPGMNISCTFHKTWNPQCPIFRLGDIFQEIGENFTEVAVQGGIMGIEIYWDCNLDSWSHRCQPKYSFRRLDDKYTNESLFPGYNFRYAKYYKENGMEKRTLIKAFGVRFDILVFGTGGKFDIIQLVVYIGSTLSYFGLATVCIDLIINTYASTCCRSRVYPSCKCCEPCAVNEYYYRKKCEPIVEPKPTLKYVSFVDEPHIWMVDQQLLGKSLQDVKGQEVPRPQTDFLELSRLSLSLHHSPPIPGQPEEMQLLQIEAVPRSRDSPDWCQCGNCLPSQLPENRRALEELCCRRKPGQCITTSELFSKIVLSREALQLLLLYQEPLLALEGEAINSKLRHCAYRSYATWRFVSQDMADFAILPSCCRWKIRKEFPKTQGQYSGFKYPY

In patent US9102686B2, “5,6,7,8,9,10-hexahydro-6,10-epimino[1,2,4]triazolo[4,3-a]azocines as P2X7 modulators” (Janssen Pharmaceutica NV, priority 2013, dated 2015):

Columns and labels:
P2X7 [1] = target: T1, P2X7 (Homo sapiens (Human), UniProt Q99572); experiment: P2X7 antagonism in human PBMCs (IL-1β release, LPS + Bz-ATP); assay type: cell-based; settings: 10 μM test compound, IL-1β release in human PBMCs, LPS 30 ng/ml, Bz-ATP 0.5 mM, read-out: PBMC 10 μM (% control)
Experimental: Human blood was collected using a blood donor program. […] Cells were incubated for an additional 1.5 hours.

rat P2X7 [2] = target: T2, rat P2X7 (Rattus norvegicus (Rat), UniProt Q64663); experiment: Ca2+ flux (FLIPR) in 1321N1 cells expressing recombinant rat P2X7 channel; assay type: cell-based; settings: rat P2X7, 250 μM BzATP
rat P2X7 [3] = target: T2, rat P2X7; experiment: Radioligand binding, rat P2X7-1321N1 cell membranes, tritiated A-804598; settings: rat P2X7-1321N1 membranes, tracer tritiated A-804598, 1 hour 4° C.
P2X7 [4] = target: T1, P2X7; experiment: Radioligand binding, human P2X7-1321N1 cell membranes, tritiated A-804598; settings: human P2X7-1321N1 membranes, tracer tritiated A-804598, 1 hour 4° C.
Experimental: P2X7 Antagonism in Recombinant hP2X7 Cells: (a) Ca^2+ Flux (b) Radioligand Binding
(B) Radioligand binding: human or rat P2X7-1321N1 cells were collected and frozen @−80° C. On the day of the experiment, cell membrane preparations were made according to standard published methods. The total assay volume was 100 μl:10 μl compound (10×)+(b) 40 μl tracer (2.5×)+50 μl membrane (2×). The tracer used for the assay was tritiated A-804598. The compound can be prepared as described in the literature. […] The assay was terminated by filtration (GF/B filters pre-soaked with 0.3% PEI) and washed with washing buffer (Tris-HCl 50 mM). The IC50 generated in the binding assay was corrected for tracer concentration and affinity of the tracer to derive at the affinity (Ki) of the test compounds.

P2X7 [5] = target: T1, P2X7; experiment: Ca2+ flux (FLIPR) in 1321N1 cells expressing recombinant human P2X7 channel; assay type: cell-based; settings: human P2X7, 250 μM BzATP

| SMILES | IC50 (rat P2X7 [2]) | further results |
| --- | --- | --- |
| O=C(c1cccc(C(F)(F)F)c1Cl)N1[C@H]2CCC[C@@H]1c1nnc(-c3ccc(Cl)cn3)n1C2 (relative stereo) [Example 29, (6S*,10R*)-3-(5-Chloropyridin-2-yl)-11-{[2-chloro-3-(trifluoromethyl)phenyl]carbonyl}-5,6,7,8,9,10-hexahydro-6,10-epimino[1,2,4]triazolo[4,3-a]azocine] | – | remaining activity at 10 µM (P2X7 [1]): 91.4% |
| O=C(c1cccc(C(F)(F)F)c1Cl)N1[C@H]2CCC[C@@H]1c1nnc(-c3ccccn3)n1C2 (relative stereo) [Example 32, (6S*,10R*)-11-{[2-Chloro-3-(trifluoromethyl)phenyl]carbonyl}-3-pyridin-2-yl-5,6,7,8,9,10-hexahydro-6,10-epimino[1,2,4]triazolo[4,3-a]azocine] | – | remaining activity at 10 µM (P2X7 [1]): 94.5% |
| O=C(c1ccc(F)c(C(F)(F)F)c1Cl)N1[C@H]2CC[C@@H]1c1nnc(-c3ccccn3)n1C2 [Example 43, (6S,9R)-10-{[2-Chloro-4-fluoro-3-(trifluoromethyl)phenyl]carbonyl}-3-pyridin-2-yl-6,7,8,9-tetrahydro-5H-6,9-epimino[1,2,4]triazolo[4,3-a]azepine] | 3980 nM | – |
| Cc1c(C(=O)N2[C@H]3CC[C@@H]2c2nnc(-c4ccccn4)n2C3)cccc1C(F)(F)F [Example 44, (6S,9R)-10-{[2-Methyl-3-(trifluoromethyl)phenyl]carbonyl}-3-pyridin-2-yl-6,7,8,9-tetrahydro-5H-6,9-epimino[1,2,4]triazolo[4,3-a]azepine] | – | Ki (rat P2X7 [3]): 12.6 nM; Ki (P2X7 [4]): 12.6 nM |
| O=C(c1cccc(C(F)(F)F)c1Cl)N1[C@H]2CC[C@@H]1c1nnc(-c3ccc(F)cn3)n1C2 [Example 45, (6S,9R)-10-{[2-Chloro-3-(trifluoromethyl)phenyl]carbonyl}-3-(5-fluoropyridin-2-yl)-6,7,8,9-tetrahydro-5H-6,9-epimino[1,2,4]triazolo[4,3-a]azepine] | 15800 nM | – |
| O=C(c1ccc(F)c(Cl)c1Cl)N1[C@H]2CC[C@@H]1c1nnc(-c3cnccn3)n1C2 [Example 47, (6S,9R)-10-[(2,3-Dichloro-4-fluorophenyl)carbonyl]-3-pyrazin-2-yl-6,7,8,9-tetrahydro-5H-6,9-epimino[1,2,4]triazolo[4,3-a]azepine] | 1920 nM | – |
| O=C(c1cccc(C(F)(F)F)c1Cl)N1[C@H]2CC[C@@H]1c1nnc(-c3cccnc3)n1C2 [Example 48, (6S,9R)-10-{[2-Chloro-3-(trifluoromethyl)phenyl]carbonyl}-3-pyridin-3-yl-6,7,8,9-tetrahydro-5H-6,9-epimino[1,2,4]triazolo[4,3-a]azepine] | 2920 nM | – |
| O=C(c1cccc(C(F)(F)F)c1Cl)N1[C@H]2CC[C@@H]1c1nnc(-c3ncc(F)cn3)n1C2 [Example 50, (6S,9R)-10-{[2-Chloro-3-(trifluoromethyl)phenyl]carbonyl}-3-(5-fluoropyrimidin-2-yl)-6,7,8,9-tetrahydro-5H-6,9-epimino[1,2,4]triazolo[4,3-a]azepine] | – | IC50 (P2X7 [5]): 10.4 nM |
| O=C(c1cccc(C(F)(F)F)c1Cl)N1[C@H]2CC[C@@H]1c1nnc(-c3ccc(Cl)s3)n1C2 [Example 55, (6S,9R)-3-(5-Chlorothiophen-2-yl)-10-{[2-chloro-3-(trifluoromethyl)phenyl]carbonyl}-6,7,8,9-tetrahydro-5H-6,9-epimino[1,2,4]triazolo[4,3-a]azepine] | 1970 nM | – |
| Cc1nc(-c2nnc3n2C[C@@H]2CC[C@H]3N2C(=O)c2cccc(C(F)(F)F)c2Cl)cs1 [Example 56, (6S,9R)-10-{[2-Chloro-3-(trifluoromethyl)phenyl]carbonyl}-3-(2-methyl-1,3-thiazol-4-yl)-6,7,8,9-tetrahydro-5H-6,9-epimino[1,2,4]triazolo[4,3-a]azepine] | 5970 nM | – |
